The source of these data is patent US20250223354A1.

Amino acid sequences for entries named in this document (tags omitted). Chains listed by the source or under a name are the forms on record and can include a tag or linker. Residues count along the entry.
UniProt Q6DKI7, 41-326 limits assumed, form in doubt: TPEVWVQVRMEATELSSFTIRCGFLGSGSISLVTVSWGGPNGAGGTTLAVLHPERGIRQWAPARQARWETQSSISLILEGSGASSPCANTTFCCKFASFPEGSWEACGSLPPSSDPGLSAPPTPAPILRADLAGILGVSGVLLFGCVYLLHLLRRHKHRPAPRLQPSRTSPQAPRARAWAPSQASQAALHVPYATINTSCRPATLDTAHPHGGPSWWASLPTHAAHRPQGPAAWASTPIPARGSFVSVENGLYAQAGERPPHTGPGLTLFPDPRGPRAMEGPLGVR
UniProt Q6DKI7, 41-171 limits assumed, form in doubt: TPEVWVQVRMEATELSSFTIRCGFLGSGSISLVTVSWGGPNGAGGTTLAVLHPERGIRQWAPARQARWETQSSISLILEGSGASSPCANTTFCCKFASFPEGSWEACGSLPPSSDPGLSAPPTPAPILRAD

For experiment [1], the target named is human PVRIG expressed on cells (human) (UniProt Q6DKI7). As to the kind of experiment: flow cytometry, CHO-huPVRIG cells. A general note: In flow cytometry, cells or beads pass a laser one at a time.
The target of experiment [2] is cynomolgus PVRIG overexpressed on CHO cells (cynomolgus). As to the kind of experiment: flow cytometry, CHO-cynoPVRIG cells.
Experiment [3] deals with human PVRIG protein with mouse IgG2a Fc tag (human; mouse) (UniProt Q6DKI7). As to the kind of experiment: flow cytometry, competition: human PVRIG-mouse IgG2a Fc (1 ug/mL) binding to CHO-huCD112 cells.

COM701-G4 (antibody): the EC50 – broadly, the concentration that produces a half-maximal response – in experiment [1] was determined as 6.42 nM; in experiment [2], 3.58 nM. For the same substance, in experiment [3], the IC50 (as a rule, the concentration needed to halve the response being measured) was determined as 1.1 nM.
